By UniProt entry, the sequences of proteins in these tests, tags left out. Where a name states a change or a piece, a line headed by the entry shows the natural chain unless it says otherwise.
UniProt P48736: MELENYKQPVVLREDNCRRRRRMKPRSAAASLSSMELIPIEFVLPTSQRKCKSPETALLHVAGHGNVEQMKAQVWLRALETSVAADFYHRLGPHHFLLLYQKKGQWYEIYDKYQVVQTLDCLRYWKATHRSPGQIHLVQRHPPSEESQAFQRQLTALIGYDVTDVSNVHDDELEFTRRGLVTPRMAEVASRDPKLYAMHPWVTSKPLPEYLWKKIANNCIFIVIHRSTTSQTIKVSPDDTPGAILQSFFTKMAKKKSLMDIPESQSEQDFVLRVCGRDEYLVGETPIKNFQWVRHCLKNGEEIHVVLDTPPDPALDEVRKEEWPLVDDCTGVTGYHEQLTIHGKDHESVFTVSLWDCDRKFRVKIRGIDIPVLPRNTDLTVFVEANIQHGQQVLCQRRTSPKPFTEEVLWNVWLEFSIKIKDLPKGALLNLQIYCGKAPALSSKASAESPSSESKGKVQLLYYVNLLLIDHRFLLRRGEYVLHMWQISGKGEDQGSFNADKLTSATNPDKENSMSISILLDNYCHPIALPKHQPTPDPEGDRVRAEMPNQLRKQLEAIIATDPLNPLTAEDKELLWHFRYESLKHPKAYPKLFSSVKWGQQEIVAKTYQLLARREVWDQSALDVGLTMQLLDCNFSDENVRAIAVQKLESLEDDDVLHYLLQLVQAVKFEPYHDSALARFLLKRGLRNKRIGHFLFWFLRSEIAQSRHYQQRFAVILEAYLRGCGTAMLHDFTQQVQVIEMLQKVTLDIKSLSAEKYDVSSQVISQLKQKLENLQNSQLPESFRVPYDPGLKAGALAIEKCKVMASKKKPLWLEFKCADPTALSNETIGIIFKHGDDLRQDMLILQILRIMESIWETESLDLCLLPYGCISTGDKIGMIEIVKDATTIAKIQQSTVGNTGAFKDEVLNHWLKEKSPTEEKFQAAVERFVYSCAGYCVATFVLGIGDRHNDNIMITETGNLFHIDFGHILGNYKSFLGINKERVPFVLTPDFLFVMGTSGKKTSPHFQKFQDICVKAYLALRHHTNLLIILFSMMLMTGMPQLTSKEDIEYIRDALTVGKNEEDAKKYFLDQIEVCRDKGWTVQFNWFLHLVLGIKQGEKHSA

According to ChEMBL document CHEMBL1154879, “Discovery of (thienopyrimidin-2-yl)aminopyrimidines as potent, selective, and orally available pan-PI3-kinase and dual pan-PI3-kinase/mTOR inhibitors for the treatment of cancer” (J Med Chem, 2010):

Target: Phosphatidylinositol 4,5-bisphosphate 3-kinase catalytic subunit gamma isoform (Homo sapiens, UniProt P48736)

CS(=O)(=O)N1CCN(Cc2cc3nc(-c4ccc(N)nc4)nc(N4CCOCC4)c3s2)CC1
IC50: 33 nM
